Laboratory results published in BindingDB's records for doi:10.1021/cb600276q (Genentech, 2006).
pKi: −log10 of the molar value.

The chains behind the UniProt entries cited, without tags or fusion partners. A line that says so, or that is headed by a name, gives the form on record, which may keep a tag or linker.
UniProt Q96CA5, as listed by the source S150G: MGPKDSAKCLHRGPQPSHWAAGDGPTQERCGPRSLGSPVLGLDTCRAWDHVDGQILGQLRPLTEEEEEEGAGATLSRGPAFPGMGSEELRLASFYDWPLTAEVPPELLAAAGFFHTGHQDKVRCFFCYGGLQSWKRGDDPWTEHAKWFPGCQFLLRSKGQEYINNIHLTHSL

Biological target: Complex of Baculoviral IAP repeat-containing protein 7 [1-159,S150G] and E3 ubiquitin-protein ligase XIAP [336-348] (Homo sapiens, UniProt Q96CA5, S150G)
Assay: ASSAY_NAME: Fluorescence Polarization Affinity Measurements. DESCRIPTION: Samples for fluorescence polarization affinity measurements were prepared by addition of serial dilutions of target protein to each well containing antagonist and polarization probe in the buffer. Samples were read after 30-min incubation. Fluorescence polarization values were plotted as a function of the antagonist …

| Compound | pKi |
| --- | --- |
| CCC(C)[C@H](NC(=O)CN1CCCC[C@H](NC(=O)[C@H](C)N)C1=O)C(=O)N[C@@H](C)C(=O)N[C@@H](CCC(N)=O)C(=O)N[C@@H](CCCCN)C(=O)N[C@@H](CO)C(=O)N[C@@H](CCC(=O)O)C(=O)O (stereo partly drawn) [(2S)-2-[(2S)-2-[(2S)-6-amino-2-[(2S)-2-[(2S)-2-[(2S,3S)-2-{1-[(3S)-3-[(2S)-2-aminopropanamido]-2-oxoazepan-1-yl]acetamido}-3-methylpentanamido]propanamido]pentanediamido]hexanamido]-3-hydroxypropanamido]pentanedioic acid] | 4.82 |
| CC[C@H](C)[C@H](NC(=O)[C@@H]1CCCN1C(=O)[C@@H](NC(=O)[C@H](C)N)C(C)C)C(=O)N[C@@H](C)C(=O)N[C@@H](CCC(N)=O)C(=O)N[C@@H](CCCCN)C(=O)N[C@@H](CO)C(=O)N[C@@H](CCC(=O)O)C(=O)O [(2S)-2-[(2S)-2-[(2S)-6-amino-2-[(2S)-2-[(2S)-2-[(2S,3S)-2-{[(2S)-1-[(2S)-2-[(2S)-2-aminopropanamido]-3-methylbutanoyl]pyrrolidin-2-yl]formamido}-3-methylpentanamido]propanamido]pentanediamido]hexanamido]-3-hydroxypropanamido]pentanedioic acid] | 6.30 |
